Measured values as given in patent US20240301023A1, “PEPTIDES AND USES THEREOF” (priority 2020, published 2024).

Chains of the proteins cited; added tags and fusions are not shown. Lines headed by an entry give the natural chain unless they say otherwise; changes in a name come on top.
UniProt P41145: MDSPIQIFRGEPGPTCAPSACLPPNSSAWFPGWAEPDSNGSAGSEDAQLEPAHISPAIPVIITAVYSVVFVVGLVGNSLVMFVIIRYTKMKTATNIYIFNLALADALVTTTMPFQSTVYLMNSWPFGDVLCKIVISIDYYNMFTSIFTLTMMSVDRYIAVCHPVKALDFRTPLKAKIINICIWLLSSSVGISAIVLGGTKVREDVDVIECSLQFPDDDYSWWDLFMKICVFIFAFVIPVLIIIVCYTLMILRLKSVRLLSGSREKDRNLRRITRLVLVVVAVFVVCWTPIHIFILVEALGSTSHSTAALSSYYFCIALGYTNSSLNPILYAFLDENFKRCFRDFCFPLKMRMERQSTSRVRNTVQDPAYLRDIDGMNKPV
UniProt P41143: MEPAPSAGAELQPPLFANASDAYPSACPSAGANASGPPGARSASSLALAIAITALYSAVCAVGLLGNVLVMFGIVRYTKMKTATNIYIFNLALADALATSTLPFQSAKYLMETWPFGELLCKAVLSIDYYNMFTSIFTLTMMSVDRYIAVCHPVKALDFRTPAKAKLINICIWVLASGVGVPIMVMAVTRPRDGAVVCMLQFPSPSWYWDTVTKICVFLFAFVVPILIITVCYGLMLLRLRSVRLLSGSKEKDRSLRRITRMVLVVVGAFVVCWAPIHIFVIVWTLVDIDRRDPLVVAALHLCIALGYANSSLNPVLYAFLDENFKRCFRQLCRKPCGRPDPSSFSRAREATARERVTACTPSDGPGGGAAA
UniProt P35372: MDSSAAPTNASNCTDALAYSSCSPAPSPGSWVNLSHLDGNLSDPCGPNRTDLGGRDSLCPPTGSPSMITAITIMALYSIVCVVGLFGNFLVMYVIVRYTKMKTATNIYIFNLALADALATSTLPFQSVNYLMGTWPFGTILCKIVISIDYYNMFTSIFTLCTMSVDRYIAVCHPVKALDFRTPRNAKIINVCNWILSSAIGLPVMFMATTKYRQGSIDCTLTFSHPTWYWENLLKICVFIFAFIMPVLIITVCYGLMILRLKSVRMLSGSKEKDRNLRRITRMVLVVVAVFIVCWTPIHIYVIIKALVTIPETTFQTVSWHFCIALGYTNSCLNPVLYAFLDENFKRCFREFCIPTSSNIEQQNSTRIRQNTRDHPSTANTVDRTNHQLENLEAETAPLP

What was measured:
[1] = biological target: Kappa opioid receptor (KOR) (Homo sapiens, UniProt P41145); test: cAMP assay (ALPHAScreen cAMP kit) in HEK 293 cells overexpressing KOR; assay type: cell-based; conditions: forskolin-stimulated HEK 293 KOR cells; for cAMP assay KOR 1 μM: test compound 1 μM; for cAMP assay KOR 10 μM: test compound 10 μM
[2] = biological target: Delta opioid receptor (DOR) (Homo sapiens, UniProt P41143); conditions: forskolin-stimulated HEK 293 DOR cells; for cAMP assay DOR 1 μM: test compound 1 μM; for cAMP assay DOR 10 μM: test compound 10 μM
Mu opioid receptor (MOR) = Mu opioid receptor (MOR) (Homo sapiens, UniProt P35372); test: cAMP assay (ALPHAScreen cAMP kit) in HEK 293 cells overexpressing MOR; assay type: cell-based; conditions: forskolin-stimulated HEK 293 MOR cells; for cAMP assay MOR 1 μM: test compound 1 μM; for cAMP assay MOR 10 μM: test compound 10 μM

“NH2-Tyr-Sar-(4-NO2)Phe-Leu-DLys-DArg-NH2” was tested, and the “cAMP assay KOR 1 μM” value [1] was 8.47, the “cAMP assay KOR 10 μM” value [1] was 25.11 and the “cAMP assay DOR 1 μM” value [2] was −3. For the same substance, the “cAMP assay DOR 10 μM” value [2] was −0.95, the “cAMP assay MOR 1 μM” value (Mu opioid receptor (MOR)) was −1.27 and the “cAMP assay MOR 10 μM” value (Mu opioid receptor (MOR)) was 0.02.

“NH2-Phe-Sar-(4-NO2)Phe-Leu-DArg-DArg-NH2” was tested, and the “cAMP assay KOR 1 μM” value [1] was 2.46, the “cAMP assay KOR 10 μM” value [1] was 23.06 and the “cAMP assay DOR 1 μM” value [2] was −0.5. For the same substance, the “cAMP assay DOR 10 μM” value [2] was 1.83, the “cAMP assay MOR 1 μM” value (Mu opioid receptor (MOR)) was −0.97 and the “cAMP assay MOR 10 μM” value (Mu opioid receptor (MOR)) was −0.64.

NH2-Tyr-Gaba-Phe-Leu-Arg-Arg-NH2 was tested, and the “cAMP assay KOR 1 μM” value [1] was 4.23, the “cAMP assay KOR 10 μM” value [1] was 22.91 and the “cAMP assay DOR 1 μM” value [2] was 2.57. The “cAMP assay DOR 10 μM” value [2] was 19.55, the “cAMP assay MOR 1 μM” value (Mu opioid receptor (MOR)) was −6.78 and the “cAMP assay MOR 10 μM” value (Mu opioid receptor (MOR)) was 7.28.
